Protein sequences, listed by entry. Tags and fused reporters are not part of them.
UniProt O70342, whole entry: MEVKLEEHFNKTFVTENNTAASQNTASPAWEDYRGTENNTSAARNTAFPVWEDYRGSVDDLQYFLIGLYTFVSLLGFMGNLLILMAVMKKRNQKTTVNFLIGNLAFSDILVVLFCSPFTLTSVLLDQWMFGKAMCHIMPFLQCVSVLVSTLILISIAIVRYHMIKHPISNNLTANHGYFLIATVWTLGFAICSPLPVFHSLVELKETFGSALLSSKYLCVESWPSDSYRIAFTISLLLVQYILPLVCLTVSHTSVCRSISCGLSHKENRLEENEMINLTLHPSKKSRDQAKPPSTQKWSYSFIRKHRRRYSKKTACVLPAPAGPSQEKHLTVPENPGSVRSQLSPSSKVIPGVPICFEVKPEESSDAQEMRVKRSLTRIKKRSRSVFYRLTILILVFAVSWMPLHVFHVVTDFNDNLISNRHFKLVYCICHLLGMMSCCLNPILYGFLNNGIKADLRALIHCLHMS

In patent US8653125B2, “Cyclohexane derivative having NPY Y5 receptor antagonism” (Shionogi Co., Ltd., priority 2009, dated 2014):

Target: mouse NPY Y5 receptor (Mus musculus (Mouse), UniProt O70342)
Assay: Affinity for NPY Y5 receptor (Test Example 1-1), 125I peptide YY binding
Settings: read-out: Binding IC50; inhibition of 125I peptide YY binding to membranes of CHO cells expressing mouse NPY Y5 receptor
Source text: cDNA sequence encoding mouse NPY Y5 receptor (Biochem. Biophys. Acta 1328: 83-89, 1997) was cloned in the expression vector (pME18S, Takebe et al. Mol. Cell. Biol. 8, 466-472). The obtained expression vector was transfected into CHO cells as a host according to the instruction manual using Lipofectamine reagent (Trademark, Gibco BRL Co., Ltd.). The cells that stably express NPY Y5 receptor were obtained.
The membrane samples prepared from the CHO cells expressing NPY Y5 receptor, the compound of the invention and 30,000 cpm ^125I peptide YY (60 pM of final concentration: Amersham) were incubated in the assay buffer (20 mM HEPES-Hanks buffer containing 0.1% bovine serum albumin, pH 7.4) at 25° C. for 2 hours. The membrane samples were then filtered from the mixture through a glassfilter (GF/C) presoaked with 1% polyethyleneimine. After washing with 50 mM Tris-HCl buffer (pH 7.4), radioactivity retained on the filters was determined using gamma counter. Non-specific binding was determined in the presence of 200 nM of peptide YY and the 50% inhibitory concentration (IC50 value) of the test compound for specific peptide YY binding was calculated (Inui, A. et al. Endocrinology 131, 2090-2096 (1992)).

For FC(F)(F)c1ccc(N[C@H]2CC[C@H](Cn3nncc3-c3ccccc3)CC2)nc1, the IC50 was 3.8 nM.
